# Source: patent publication US9926275B2 (priority 2013, dated 2018)
# Amino acid sequences for entries named in this document (tags omitted).
# UniProt P21554, whole entry: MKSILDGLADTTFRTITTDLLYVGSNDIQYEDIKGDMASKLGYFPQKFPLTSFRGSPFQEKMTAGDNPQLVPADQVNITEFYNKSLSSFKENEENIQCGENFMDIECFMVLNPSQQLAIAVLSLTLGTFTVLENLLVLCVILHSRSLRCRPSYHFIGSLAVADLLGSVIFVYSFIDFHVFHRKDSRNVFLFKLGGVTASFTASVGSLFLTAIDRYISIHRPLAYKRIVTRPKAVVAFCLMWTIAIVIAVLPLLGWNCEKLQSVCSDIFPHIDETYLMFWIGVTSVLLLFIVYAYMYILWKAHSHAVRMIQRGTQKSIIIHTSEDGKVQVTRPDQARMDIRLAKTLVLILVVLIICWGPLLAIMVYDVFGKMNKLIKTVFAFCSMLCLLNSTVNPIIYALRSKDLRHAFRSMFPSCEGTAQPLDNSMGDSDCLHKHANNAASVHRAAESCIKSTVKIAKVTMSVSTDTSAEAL
# Key:
# CB1 receptor [1] = molecular target: T1, CB1 receptor (Homo sapiens, UniProt P21554); assay: DiscoveRx HitHunter cAMP XS+ assay in cAMP Hunter cell line, allosteric modulation of CP55,940 response; format: cell-based; conditions: cAMP EC50 nM
# Method: Cell Handling: cAMP Hunter cell lines were expanded from freezer stocks in T25 flasks according to standard procedures and maintained in selective growth media prior to assay. Once it was established that the cells were healthy and growing normally, cells were passaged from flasks using cell dissociation reagent buffer and seeded into white walled clear bottom 384-well microplates for compound profiling. For profiling, cells were seeded at a density of 10000 cells per well in a total volume of 20 μL and were allowed to adhere and recover overnight prior to compound addition. Cells were treated the following day using the protocols shown below. cAMP modulation was determined using the DiscoveRx HitHunter cAMP XS+ assay.
# Media was aspirated from cells and replaced with 10 μL 1:1 HBSS/Hepes: cAMP XS+ Ab reagent. Agonist (CP55,940) dose curves were performed to determine the EC20 value for the testing with the compounds of the present technology. […] EC20 agonist concentration was determined directly from agonist dose curve. […]
# Signal Detection: After appropriate compound incubation, assay signal was generated through incubation with 20 μL cAMP XS+ED/CL lysis cocktail for one hour followed by incubation with 20 μL cAMP XS+EA reagent for three hours at room temperature. Microplates were read following signal generation with a PerkinElmer Envision™ instrument for chemiluminescent signal detection. […]
# CB1 receptor [2] = molecular target: T1, CB1 receptor; assay: β-arrestin recruitment in CNR1 PathHunter cell line, allosteric modulation of CP55,940 response; format: cell-based; conditions: β-arrestin EC50 nM
# Method: For allosteric determination, cells were preincubated with compound followed by agonist challenge at the EC20 concentration of the agonist. 5 μL of 4× compound was added to cells and incubated at 37° C. for 30 minutes. 5 μL of 4× EC20 agonist was added to cells and incubated at 37° C. for 30 minutes.
# Data Analysis: Dose curves were plotted using GraphPad Prism or Activity Base. The percentage activity is calculated using the following formula: % Activity=100%×(1−(mean RLU of test sample−mean RLU of MAX control)/(mean RLU of vehicle control [EC20 for PAM]−mean RLU of MAXcontrol).
# Agonist (CP55,940) dose curves were performed for the CNR1 PathHunter and cAMP Hunter cell lines. Data shown was normalized to the maximal and minimal response observed in the presence of control ligand and vehicle respectively. The cAMP assay was performed in the presence of 20 μM forskolin (EC80).
# In Vitro Evaluation: The in vitro evaluation of the covalent allosteric modulators was performed using as described previously.
smiles,measurement,setting,value
"O=C(Nc1ccc(Cl)cc1)Nc1cccc(-c2cccc(N3CCCC3)n2)c1 [Compound 10a, 1-(4-Chlorophenyl)-3-(3-(6-(pyrrolidin-1-yl)pyridin-2-yl)phenyl)urea]",EC50,CB1 receptor [1],231 nM
same,EC50,CB1 receptor [2],27 nM
